Among the data in PubChem BioAssay AID1346983 (Tox21, 2019) are max activation values, retold here.

Protein sequences, listed by entry. Tags and fused reporters are not part of them.
UniProt Q9R1A7, whole entry: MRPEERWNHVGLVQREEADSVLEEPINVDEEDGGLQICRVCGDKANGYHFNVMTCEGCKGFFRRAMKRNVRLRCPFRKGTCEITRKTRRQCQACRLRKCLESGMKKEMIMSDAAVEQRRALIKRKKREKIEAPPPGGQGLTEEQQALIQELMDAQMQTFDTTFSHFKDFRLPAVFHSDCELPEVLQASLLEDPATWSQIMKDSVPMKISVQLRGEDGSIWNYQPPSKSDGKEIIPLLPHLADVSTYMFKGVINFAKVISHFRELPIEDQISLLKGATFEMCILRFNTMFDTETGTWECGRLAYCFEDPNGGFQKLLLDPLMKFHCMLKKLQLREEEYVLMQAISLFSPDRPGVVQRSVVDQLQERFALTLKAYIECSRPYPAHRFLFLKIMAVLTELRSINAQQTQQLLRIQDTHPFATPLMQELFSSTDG

The entries are a selection whose mix differs from that of the whole data set. Records with an inconclusive call do not appear. Activity calls are given as the source filed them. Calls follow the shape of the dose curve; as a rule, active = well fitted activation curve with a large enough effect in the repeat runs; inconclusive = weak or mixed curves; inactive = no such curve, though single readings can be large or run the other way.
% is scaled to controls: 0 for no effect and ±100 for the full control effect.

For the experiment, the target named is Nuclear receptor subfamily 1 group I member 2 (Rattus norvegicus) (UniProt Q9R1A7). The experiment is described as follows: Rat pregnane X receptor (rPXR) activation by small molecules, qHTS assay. Also: nearly all actives have a fitted effect of over 20% in size. The following applies: rPXR luciferase reporter cells, One-Glo luminescence, 24 h; stronger effect = higher value. The source says: National Center for Advancing Translational Sciences [NCATS] NIH Chemical Genomics Center [NCGC] U.S. Environmental Protection Agency [EPA] National Institutes of Environmental Health Sciences [NIEHS] National Toxicology Program [NTP] Assay overview: The Pregnane X receptor (PXR), a ligand activated nuclear receptor plays a critical role in the regulation of genes involved in drug metabolism and transporters. PXR binds xenobiotics and when compounds interact with PXR produces enhanced expression of CYP3A genes. In humans PXR activation and CYP3A4 induction can be problematic due to their interactions with co-medicated drugs and decrease their efficacy or increase their own metabolism. However, there are known species-specific differences with regard to PXR activation that should be taken into account when animal PXR data are extrapolated to humans. A cell based rat PXR (rPXR) assay (developed by Puracyp, Inc., CA) was used to assess the activation of rPXR.
Assay Protocol Summary: rPXR cells were dispensed at 2,000 per well in 5uL of assay medium into white, solid-bottom 1536-well plates using a Multidrop Combi dispenser (Thermo Scientific). […] Then 5ul One-Glo assay reagent (Promega) was added to each plate by a Flying Reagent Dispenser (FRD, Aurora Discovery) and following 30 min incubation at room temperature, luciferase activity was quantified on a ViewLux plate reader (Perkin Elmer).
On the technique in general: In qHTS, concentration-response curves come from the screen itself.
`CCC(=O)N(c1ccccc1)C1CCN(CCc2ccccc2)CC1`: the max activation is inactive: 0.385%.
For `CN(CCCl)CCCl` the value was inactive: -6.15%.
